Experimental data published in US3941842A, “P,P'-Disubstituted α-trichloromethylbenzylanilines” (priority 1972, dated 1976).

Key:
Phormia regina = settings: synergistic ratio: LD50 alone/LD50 synergized with piperonyl butoxide
Method: The compounds of the present invention were tested for insecticidal activity by standard methods, and compared with the insecticidal activities of DDT and symmetrical analogs of DDT, such methoxychlor. Toxicological methods for the determination of the topical LD50 values to adult female SNAIDM and RSP houseflies, Musca domestica L. and to Phormia regina, and LC50 values to Culex pipiens quinquefasciatus Say, and Anopheles albimanus Weid mosquitoes were described by Metcalf el al., 44 Bull. World Health Org. […] The methods for evaluation of metabolism by mouse liver homogenate and by female RSP housefly and salt-marsh caterpillar larvae Estigmene acrea Drury, were described by Kapoor et al., 18 J. Agr. […] The techniques for model eocsystem evluation were described by Metcalf et al., 5 J. Environ. Sci. Tech.
(§1) Since piperonyl butoxide serves to block the action of MFO, the synergized LD50 values express the intrinsic toxicity of the compounds. With the detoxifying action of MFO enzymes blocked, the intrinsic toxicity of the compounds can thus be measured.

[1] = Model ecosystem: distribution, ecological magnification and Biodegradability Index; settings: total recovered polar/total recovered nonpolar metabolites
From the text: After the amounts of the various metabolites have been calculated and a determination is made as to which of the metabolites are to be designated as "polar" and which are to be designated as "non-polar", a Biodegradability Index (amount of polar metabolites/amount of nonpolar metabolites) may be calculated. Remembering that nonpolar compounds, such as DDT are readily soluble in the fatty tissues, but are not readily soluble in water based solutions, and that the cell fluid is essentially a water based solution, the lower the Biodegradability Index, the lower the amount of biodegradability of the compound. The higher the amount of polarity, the greater the likelihood that the polar compound will dissolve in water, a very polar compound, and be eliminated from the cell.
The environmental fate of any new pesticide is a factor of paramount importance in determining how and where it might be used. […]
It is of interest to compare the model ecosystem behavior of compound III in Table II, α-trichloromethyl-p-ethoxy benzyl-p-ethoxy aniline, "ethoxyaniline" of Table IV, with the corresponding DDT analog "ethoxychlor" [2,2-bis(p-ethoxyphenyl)-1,1,1-trichloroethane], as evaluated by Kapoor et al., 20(1) J. Agr. […]

[2] = system: Musca domestica (SNAIDM and RSP strains), Phormia regina, Culex fatigans and Anopheles albimanus; assay: Insecticidal activity over the test insects (Table II, summarised in words); format: in vivo; settings: synergism by piperonyl butoxide
Method: The compounds of the present invention were tested for insecticidal activity by standard methods, and compared with the insecticidal activities of DDT and symmetrical analogs of DDT, such methoxychlor. Toxicological methods for the determination of the topical LD50 values to adult female SNAIDM and RSP houseflies, Musca domestica L. and to Phormia regina, and LC50 values to Culex pipiens quinquefasciatus Say, and Anopheles albimanus Weid mosquitoes were described by Metcalf el al., 44 Bull. World Health Org. 363 (1971). The methods for evaluation of metabolism by mouse liver homogenate and by female RSP housefly and salt-marsh caterpillar larvae Estigmene acrea Drury, were described by Kapoor et al., 18 J. Agr. Food Chem. 1145 (1970). The techniques for model eocsystem evluation were described by Metcalf et al., 5 J. Environ. Sci. Tech. 709 (1971).
as §1

Compound	SR, Phormia regina (Phormia regina)	Biodegradability Index (B.I.) [1]	SR values (in words) [2]
CCOc1ccc(NC(c2ccc(OCC)cc2)C(Cl)(Cl)Cl)cc1 (stereo not drawn) [Compound III, α-trichloromethyl-p-ethoxybenzyl-p-ethoxyaniline]	3.7	2.0	
COc1ccc(NC(c2ccc(OC)cc2)C(Cl)(Cl)Cl)cc1 (stereo not drawn) [Compound II]	3.4		
Cc1ccc(NC(c2ccc(C)cc2)C(Cl)(Cl)Cl)cc1 (stereo not drawn) [IV]	1.6		
CCOc1ccc(C(Nc2ccc(Cl)cc2)C(Cl)(Cl)Cl)cc1 (stereo not drawn) [VII, α-trichloromethyl1p-ethoxybenzyl-p-chloroaniline]	1.2		
CCOc1ccc(C(Nc2ccc(C)cc2)C(Cl)(Cl)Cl)cc1 (stereo not drawn) [XI, α-trichloromethyl-p-ethoxybenzyl-p-methylaniline]	1.8		
CCCCOc1ccc(C(Nc2ccc(OC)cc2)C(Cl)(Cl)Cl)cc1 (stereo not drawn) [XVIII]	> 4		
COc1ccc(C(Nc2ccc(C)c(C)c2)C(Cl)(Cl)Cl)cc1 (stereo not drawn) [XXIII]	5.0		
COc1ccc(C(Nc2ccc(C)cc2C)C(Cl)(Cl)Cl)cc1 (stereo not drawn) [XXIV]	3.9		
COc1ccc(C(Nc2ccc(C3CCCCC3)cc2)C(Cl)(Cl)Cl)cc1 (stereo not drawn) [XXVII]	> 2		
COc1ccc(NC(c2ccc(N(C)C)cc2)C(Cl)(Cl)Cl)cc1 (stereo not drawn) [XXV]	> 3		high SR value
